Legend:
[1] = target: T1, Protein kinase C iota type (Homo sapiens) (UniProt P41743); conditions: Compound concentration 1000.0 nM
T1 sequence (whole entry): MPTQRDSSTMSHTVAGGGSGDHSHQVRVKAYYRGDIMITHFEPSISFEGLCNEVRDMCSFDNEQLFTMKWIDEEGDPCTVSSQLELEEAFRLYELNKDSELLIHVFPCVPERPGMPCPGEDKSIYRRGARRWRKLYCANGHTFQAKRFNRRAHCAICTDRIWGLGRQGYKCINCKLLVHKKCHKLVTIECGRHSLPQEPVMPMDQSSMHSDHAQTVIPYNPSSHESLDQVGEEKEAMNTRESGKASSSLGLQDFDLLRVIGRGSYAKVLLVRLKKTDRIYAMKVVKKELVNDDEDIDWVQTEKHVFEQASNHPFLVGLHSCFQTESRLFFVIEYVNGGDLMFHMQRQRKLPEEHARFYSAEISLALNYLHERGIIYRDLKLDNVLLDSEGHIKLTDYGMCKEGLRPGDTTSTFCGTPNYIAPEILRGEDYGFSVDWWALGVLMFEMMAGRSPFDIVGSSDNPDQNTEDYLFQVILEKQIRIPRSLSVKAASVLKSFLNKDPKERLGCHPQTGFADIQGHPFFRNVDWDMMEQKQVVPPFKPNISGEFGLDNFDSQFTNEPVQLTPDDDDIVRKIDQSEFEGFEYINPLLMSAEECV

[2] = target: T2, SNF-related serine/threonine-protein kinase (Homo sapiens) (UniProt Q9NRH2); conditions: Compound concentration 1000.0 nM
T2 sequence (whole entry): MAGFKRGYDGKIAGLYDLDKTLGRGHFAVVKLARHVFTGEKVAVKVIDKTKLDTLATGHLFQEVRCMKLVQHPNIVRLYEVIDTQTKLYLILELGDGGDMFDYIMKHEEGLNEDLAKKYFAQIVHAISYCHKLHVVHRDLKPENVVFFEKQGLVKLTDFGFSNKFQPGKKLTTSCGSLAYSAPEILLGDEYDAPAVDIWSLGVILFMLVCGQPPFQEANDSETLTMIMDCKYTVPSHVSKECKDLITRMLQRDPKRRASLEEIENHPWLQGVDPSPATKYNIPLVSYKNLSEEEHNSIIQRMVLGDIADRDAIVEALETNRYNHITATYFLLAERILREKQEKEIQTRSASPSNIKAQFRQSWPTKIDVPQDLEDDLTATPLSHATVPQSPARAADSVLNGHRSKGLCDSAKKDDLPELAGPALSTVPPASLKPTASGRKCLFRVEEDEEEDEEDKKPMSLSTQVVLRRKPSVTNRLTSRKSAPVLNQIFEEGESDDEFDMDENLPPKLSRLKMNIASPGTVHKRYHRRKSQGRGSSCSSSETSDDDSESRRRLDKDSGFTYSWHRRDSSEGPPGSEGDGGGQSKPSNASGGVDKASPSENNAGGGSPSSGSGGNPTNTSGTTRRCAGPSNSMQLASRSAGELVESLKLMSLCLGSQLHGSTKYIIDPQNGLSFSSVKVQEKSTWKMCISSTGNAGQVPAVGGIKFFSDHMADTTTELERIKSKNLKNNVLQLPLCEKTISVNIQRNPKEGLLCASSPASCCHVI

Question: What does the source list for Cc1c(C(=O)O)cc(-c2ccc(C3CCNCC3)cc2)c2ccc(-c3ccc(C(F)(F)F)cc3)cc12 [PPTN-NC]?
Answer: residual activity [1]: 68%; residual activity [2]: 69%
